Measured values taken from patent US20050180956A1, “SSAO enzyme substrates for vasorelaxation, and methods of use thereof” (priority 2004, published 2005).
Where two headings read alike, the source gives them in different places.

Key:
[1] = system: isolated human blood vessels; assay: tissue or blood; details: read-out: apparent EC50s in all three human vessels, approximate range
[2] = system: isolated human blood vessels
[3] = system: rat thoracic aorta (TA); details: 10 min; for % Response, contraction (C), rat Old W thoracic aorta / % Response, relaxation (R), rat Old W thoracic aorta: NE-precontracted (1 μM) TA of 1-yr old Wistar rats; for % Response, contraction (C), rat Old W thoracic aorta / % Response, relaxation (R), rat Old W thoracic aorta / % Response, contraction (C), rat Young SD thoracic aorta / % Response, relaxation (R), rat Young SD thoracic aorta: 1 mmol/L, mean ± SE; for % Response, contraction (C), rat Young SD thoracic aorta / % Response, relaxation (R), rat Young SD thoracic aorta: NE-precontracted (1 μM) TA of 18-20 week old Sprague-Dawley rats
[4] = system: human right saphenous vein (RSV)
[5] = system: human right saphenous vein (RSV); assay: tissue or blood
[6] = read-out: Apparent EC50, contraction (C), RSV
[7] = read-out: Apparent EC50, relaxation (R), RSV
[8] = NE-precontracted (1 μM) RSV, 10 min exposure to 1 mmol/L, mean ± SE

| SMILES | EC50 [1] [µM] | lowest formaldehyde concentration to which a vessel responded ([2]; 6 human vessels (3 LIMA and 3 RSV), cumulative concentrations) [mmol/L] | overt toxicity (near complete loss of tension response to HI K+ after washout), human vessels ([2]; formaldehyde 1 mmol/L, 10 min, 3 LIMA and 3 RSV) | % Response, contraction (C), rat Old W thoracic aorta [3] [%] | % Response, relaxation (R), rat Old W thoracic aorta [3] [%] | % Response, contraction (C), rat Young SD thoracic aorta [3] [%] | % Response, relaxation (R), rat Young SD thoracic aorta [3] [%] | overt toxicity (near complete loss of tension response to HI K+ after washout), rat TA ([3]; formaldehyde 1 mmol/L, vessels affected of vessels exposed) | % Response, contraction (C), RSV [4] [%] | % Response, relaxation (R), RSV [4] [%] | EC50 [5, 6] [µM] | EC50 [5, 7] [µM] | % Response, contraction (C), RSV [4, 8] [%] | % Response, relaxation (R), RSV [4, 8] [%] | % Relaxation, RSV [4] [%] | effect of pretreatment on methylamine responses in RSV [4] |
| --- | --- | --- | --- | --- | --- | --- | --- | --- | --- | --- | --- | --- | --- | --- | --- | --- |
| C=O [Formaldehyde, formaldehyde] | 200 to 300 | ≥ 1 | none of the 6 | 2.6 ± 1.8 | 37.5 ± 16.2 | 2.1 ± 2.1 | 37.5 ± 21.6 | 2 of 18 | 2.6 ± 2.6 | 31.7 ± 15.9 | 315 | 315 | – | – | – | – |
| OO [H2O2, hydrogen peroxide] | 200 to 300 | – | – | 13.6 ± 3.1 | 56.6 ± 6.3 | 41.2 ± 11.5 | 50.8 ± 18.2 | – | – | – | 220 ± 38 | 315 | 25.4 ± 5.6 | 6.5 ± 3.2 | – | – |
| CN [methylamine] | – | – | – | – | – | – | – | – | 17.4 ± 3.8 | 20.6 ± 4.3 | 200 ± 52 | 230 ± 28 | – | – | 57.2 ± 6.2 | – |
| NNC(N)=O [semicarbazide] | – | – | – | – | – | – | – | – | – | – | – | – | – | – | – | completely blocked methylamine responses in RSV |
